Measured values reported in patent publication US8258098B2, “Antitumoral treatments” (Pharma Mar, S.A., priority 2006, dated 2012).

System: MRI-H187 melanoma tumor xenografts
Experiment: Net tumor volume in tumor xenografts
Format: in vivo, female athymic mice
Settings: Aplidine 50 μg/kg, DTIC 40 mg/kg, Carboplatin 25 mg/kg, i.p.
Description: Athymic nude female mice were received from Harlan Sprague Dawley, Madison, Wis. at 4-5 weeks of age. Mice were acclimated to the laboratory for at least one week prior to implantation of tumor. Animals were housed in static cages with food and water allowed ad libitum. Experimental animals were implanted with either tumor fragments derived from transplantation established human tumors or with cells obtain directly from in vitro culture. Tumors were implanted subcutaneously on the right flank on Day 0.
Tumor size measurements were recorded twice weekly beginning on day 4 or 5 using vernier calipers. The formula to calculate volume for a prolate ellipsoid was used to estimate tumor volume from 2-dimensional tumor measurements: tumor volume (mm^3)=(length×width^2)÷2. Assuming unit density, volume was converted to weight (i.e., 1 mm^3=1 mg). […] Treatments were initiated and administered on an individual body weight basis. A dose range finding study was performed on each tumor model to determine the appropriate dose level of each compound used in the combination studies.

N.N.O=C([O-])C1(C(=O)[O-])CCC1.[Pt+2] [carboplatin]
Net Tumor Volume ± S.E.M. (MRI-H187, DAY 20): 143 ± 13 mg
Net Tumor Volume ± S.E.M. (MRI-H187, DAY 31): 398 ± 76 mg
Net Tumor Volume ± S.E.M. (MRI-H187, DAY 49): 1447 ± 261 mg
